Assay results reported in patent US4701521A, “Method of effecting cellular uptake of molecules” (The Trustees of Boston University, priority 1979, dated 1987).

How the values were obtained:
[1] = test system: MTX-sensitive variant of P1798 S/B lymphosarcoma cells; assay: Uptake by tumor cell suspensions in vitro, MTX-sensitive; type: cell-based, mouse; conditions: 60 minutes 37° C.
[2] = test system: steroid-resistant, presumably MTX-sensitive variant of P1798 S/B; assay: Uptake by tumor in vivo, MTX-sensitive; set-up: species or system BALB/c mice; conditions: 24 hours after one tail vein injection
From the text: The results of two typical experiments were:

[3] = test system: P 1798 S/B tumor, methotrexate-resistant lymphosarcoma; assay: Antitumor effect (tumor weight), MTX-resistant lymphosarcoma, intravenous; type: in vivo, BALB/c male mice; conditions: for Mean Tumor Weight: Mean ± SEM
[4] = test system: MTX-resistant tumor (P1798 S/B lymphosarcoma) cells; assay: Uptake by tumor cell suspensions in vitro, MTX-resistant; type: cell-based, mouse; conditions: for CPM per 1 × 10^5 Cells: 60 minutes 37° C.
[5] = test system: MTX-resistant, steroid-sensitive tumor (P1798 S/B); assay: Uptake by tumor in vivo, MTX-resistant; conditions: for CPM Per 5 × 10^6 Cells: 24 hours after one tail vein injection
[6] = test system: P 1798 S/B lymphosarcoma, MTX-resistant; assay: Survival of mice bearing MTX-resistant lymphosarcoma; type: in vivo, BALB/c mice
Description: Treatment consisted of one daily 0.2 ml injection in the tail vein beginning on the sixth day after inoculation, and was continued until the death of the animal. […] In all three groups, the first death occurred on day 10 or 11 and the last survivor died on day 14. By contrasts, in the group receiving MTX-PLL, the first death occurred on day 15 and the last survivor died on day 21. Thus, the use of MTX-PLL conjugate prolonged survival by an average of 6 days.

CN(Cc1cnc2nc(N)nc(N)c2n1)c1ccc(C(=O)N[C@@H](CCC(=O)O)C(=O)O)cc1 [MTX, Methotrexate]
CPM per 1 × 10^5 Cells ([1]; Exp. I): 2,094 CPM
CPM per 1 × 10^5 Cells ([1]; Exp. II): 3,154 CPM
CPM Per 5 × 10^6 Cells ([2]; Exp. I): 2099 CPM
CPM Per 5 × 10^6 Cells ([2]; Exp. II): 2240 CPM
% of Controls (tumor weight) ([3]; Experiment No. 1): 102%
Mean Tumor Weight ([3]; Experiment No. 1, daily tail vein injection from Day 12, 3 days, PLL MW 2,700): 4.53 ± 0.28 g
% of Controls (tumor weight) ([3]; Experiment No. 2): 97%
Mean Tumor Weight ([3]; Experiment No. 2, daily tail vein injection from 8th day, 4 days): 4.80 ± 0.50 g
CPM per 1 × 10^5 Cells ([4]; Exp. I, MTX 8.8×10^-6 M, MTX-PLL 7.3×10^-6 M, PLL MW 3,100): 277 CPM
CPM per 1 × 10^5 Cells ([4]; Exp. II): 178 CPM
less free drug taken up than by drug sensitive tumor cells ([4]; approximately 8×10^-6 M): about 10 times
CPM Per 5 × 10^6 Cells ([5]; Exp. I, MTX 3.6 mg/kg, MTX-PLL 3.2 mg/kg, PLL MW 3,100): 63 CPM
CPM Per 5 × 10^6 Cells ([5]; Exp. II): 94 CPM
lesser uptake of free drug by resistant vs sensitive tumor ([5]; mouse, in vivo): ~30 fold
last survivor died ([6]; daily i.v. from sixth day after inoculation): 14 days
longest survival measured from the initial treatment ([6]; mouse, in vivo): 8 days
